From article PMC8397948, “Effect of Selected Antidepressants on Placental Homeostasis of Serotonin: Maternal and Fetal Perspectives” (Pharmaceutics, 2021)

Biological target: T1, OCT3 (Homo sapiens, UniProt O75751)
T1 construct: MVM and BM vesicles were used to evaluate the effects of antidepressants on SERT- and OCT3-mediated uptake of 5-HT, respectively; from tissue; host or cells: human term placenta, basal membrane (BM) vesicles
T1 sequence (O75751 1-556): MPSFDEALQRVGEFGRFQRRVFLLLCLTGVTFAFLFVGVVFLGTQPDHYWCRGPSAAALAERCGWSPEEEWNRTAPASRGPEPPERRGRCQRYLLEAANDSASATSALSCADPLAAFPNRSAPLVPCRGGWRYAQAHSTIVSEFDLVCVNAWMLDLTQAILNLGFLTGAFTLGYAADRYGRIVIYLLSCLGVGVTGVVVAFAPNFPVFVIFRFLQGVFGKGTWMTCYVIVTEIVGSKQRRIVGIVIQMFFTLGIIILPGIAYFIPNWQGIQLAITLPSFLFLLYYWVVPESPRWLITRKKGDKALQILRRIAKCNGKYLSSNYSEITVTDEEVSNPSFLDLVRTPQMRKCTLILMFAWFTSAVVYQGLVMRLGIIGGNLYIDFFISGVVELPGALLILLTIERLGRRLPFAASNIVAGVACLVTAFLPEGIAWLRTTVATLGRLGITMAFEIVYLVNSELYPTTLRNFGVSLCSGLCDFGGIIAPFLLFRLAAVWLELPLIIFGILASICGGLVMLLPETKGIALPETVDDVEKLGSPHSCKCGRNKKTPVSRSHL
Test: [3H]5-HT uptake by basal membrane (BM) vesicles from human term placenta
Assay type: biochemical

Structure (SMILES) | IC50
COc1ccc(C(CN(C)C)C2(O)CCCCC2)cc1 (centres unmarked) [Venlafaxine, venlafaxine hydrochloride] | 30.8 nM
CN(C)CCCC1(c2ccc(F)cc2)OCc2cc(C#N)ccc21 (centres unmarked) [Citalopram, citalopram hydrobromide] | 15.1 nM

Structures can show the parent of a compound that is named as a salt.
